Biological target: Mitogen-activated protein kinase 14 (Homo sapiens, UniProt Q16539)
Experiment: Inhibition of human p38alpha using MBP as substrate by [gamma-33P]-ATP assay

By UniProt entry, the sequences of proteins in these tests, tags left out.
UniProt Q16539, whole entry: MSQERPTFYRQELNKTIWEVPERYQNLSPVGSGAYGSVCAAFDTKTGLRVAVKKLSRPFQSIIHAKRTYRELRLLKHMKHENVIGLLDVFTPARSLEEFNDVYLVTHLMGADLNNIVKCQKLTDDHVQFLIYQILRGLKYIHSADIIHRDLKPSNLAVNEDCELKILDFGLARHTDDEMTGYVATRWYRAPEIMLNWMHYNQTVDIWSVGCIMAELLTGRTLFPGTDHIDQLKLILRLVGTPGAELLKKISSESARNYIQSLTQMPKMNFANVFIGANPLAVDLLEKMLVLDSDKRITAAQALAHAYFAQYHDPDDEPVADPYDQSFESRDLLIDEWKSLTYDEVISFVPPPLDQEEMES

- IC50: 110 nM
SMILES: Cc1nc2c(cnn2-c2csc(C(=O)NC3COC3)c2)cc1Nc1c(F)cccc1Cl
